Test results from paper PMC3806051 (Journal of the American Chemical Society, 2013).

Test system: SJSA-1 osteosarcoma tumor xenograft

Question: What does the source list for `CC(C)(C)C[C@H]1N[C@@H](C(=O)N[C@H]2C[C@@](C)(O)C2)[C@H](c2cccc(Cl)c2)[C@@]12C(=O)Nc1cc(Cl)ccc12` [15a, (2′R,3S,4′R,5′R)-6-chloro-4′-(3-chlorophenyl)-N-((1s,3S)-3-hydroxy-3-methylcyclobutyl)-2′-neopentyl-2-oxospiro[indoline-3,3′-pyrrolidine]-5′-carboxamide]?
Answer: tumor growth inhibition as compared to vehicle control (100 mg/kg daily oral gavage 14 days, end of treatment (day 24)): 78%; weight loss or other signs of toxicity (100 mg/kg oral gavage 14 days): no significant weight loss or other signs of toxicity; tumor regression (100 mg/kg oral gavage for 14 days, SCID mice with SJSA-1 tumors): failed to achieve tumor regression
